Settings: temperature dependence of ellipticity at 228 nm; 100 μM, 1 mm path length, 10 mM PBS buffer, pH 7.5

Row | Substance | thermal stability of PPII-helical structure
1 | Arg Cys Arg Val Arg Thr Ser Arg D-Pro Gly Tyr Asn Gly Xaa Trp Ser Glu Trp Cys, wherein Xaa is N-methoxyethyl glycine [cTp_XE] | slightly enhance the thermal stability
2 | Arg Cys Arg Val Arg Thr Ser Arg D-Pro Gly Tyr Asn Gly Xaa Trp Ser Pro Trp Cys, wherein Xaa is N-methoxyethyl glycine [cTp_XP] | slightly enhance the thermal stability

From patent US20180051056A1, “SYNTHETIC MINIATURE PROTEIN SCAFFOLDS, PHARMACEUTICAL COMPOSITIONS AND METHODS OF USING SAME” (priority 2016, published 2018)
